{"sequences": {"note": "The chains behind the UniProt entries cited, without tags or fusion partners.", "UniProt Q9UBT2, whole entry": "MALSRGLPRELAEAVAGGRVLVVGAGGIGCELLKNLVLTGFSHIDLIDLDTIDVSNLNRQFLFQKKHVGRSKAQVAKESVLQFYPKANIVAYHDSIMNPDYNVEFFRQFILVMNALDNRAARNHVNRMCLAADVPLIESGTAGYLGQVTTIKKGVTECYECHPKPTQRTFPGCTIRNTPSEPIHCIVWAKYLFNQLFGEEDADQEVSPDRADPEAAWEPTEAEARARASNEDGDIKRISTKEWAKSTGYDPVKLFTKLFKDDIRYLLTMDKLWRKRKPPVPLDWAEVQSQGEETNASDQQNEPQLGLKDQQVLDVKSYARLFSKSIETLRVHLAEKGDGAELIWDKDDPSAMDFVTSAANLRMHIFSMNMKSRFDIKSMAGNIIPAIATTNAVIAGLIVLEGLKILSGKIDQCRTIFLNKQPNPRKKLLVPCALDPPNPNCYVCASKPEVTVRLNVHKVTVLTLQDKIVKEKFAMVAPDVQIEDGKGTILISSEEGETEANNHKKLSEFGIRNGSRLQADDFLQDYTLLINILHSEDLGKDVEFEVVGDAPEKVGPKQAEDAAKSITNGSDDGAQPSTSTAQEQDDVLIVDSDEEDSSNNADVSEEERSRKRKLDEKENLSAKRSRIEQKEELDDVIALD", "UniProt Q9UBE0, whole entry partner": "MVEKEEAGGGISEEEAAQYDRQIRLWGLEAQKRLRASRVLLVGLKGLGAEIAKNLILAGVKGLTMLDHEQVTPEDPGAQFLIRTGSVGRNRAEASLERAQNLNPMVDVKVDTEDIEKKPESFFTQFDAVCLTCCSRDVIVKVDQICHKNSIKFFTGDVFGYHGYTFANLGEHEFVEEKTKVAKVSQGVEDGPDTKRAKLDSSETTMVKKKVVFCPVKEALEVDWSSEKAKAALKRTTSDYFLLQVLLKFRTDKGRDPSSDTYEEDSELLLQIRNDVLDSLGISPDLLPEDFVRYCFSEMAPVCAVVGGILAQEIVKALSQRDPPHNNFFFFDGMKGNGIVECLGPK"}, "source": "patent US20260035382A1", "about": "“COMPOUNDS AS SUMO ACTIVATING ENZYME INHIBITORS” (WIGEN BIOMEDICINE TECHNOLOGY (SHANGHAI) CO., LTD., priority 2022, published 2026)", "target": "SAE (Homo sapiens (Human), UniProt Q9UBT2)", "assay": "In vitro inhibitory activity assay against SAE (SUMO-2/3 immunofluorescence in HCT116 cells)", "settings": "read-out: SUMO IF IC50, 6 h incubation, class symbols", "description": "HCT116 cells were seeded into a 96-well black transparent bottom plate at about 20000/well with 90 μL per well. The cells were incubated at 37° C. overnight for 24 h. The test compounds were 10-fold diluted to give a final concentration, and 10 μL of the diluted compounds was added to each well of the cell culture plate. The mixture was incubated at 37° C. for 6 h. The cells were then washed gently, the culture medium was discarded, and the cells were washed once with 200 μL of 0.1% o PBST. 50 μL of 4% PFA was added to each well, and the cells were immobilized at room temperature for 20 min, and then washed with PBS 2-3 times. 50 μL of 0.2% o Triton X-100 was added to each well, and the cells were left to stand at room temperature for 15 min and washed with 0.1% PBST 3 times. 100 uL of 3% BSA (0.6 g BSA+20 mL PBS) was added to each well, and the mixture was blocked at 37° C. for 30 min. After the blocking was completed, the liquid was removed and a primary antibody (SUMO-2/3 (181H8) Rabbit mAb, 1:400 dilution) was prepared with […]. 30 μL of the diluted primary antibody was added to each well, and the mixture was incubated at 4° C. overnight. The cells were washed 3 times with 200 μL of 0.1% o PBST. […] The fluorescence signal of the sample was detected and compared to the DMSO group, and the inhibition rate and IC50 were calculated.", "data": [{"smiles": "NS(=O)(=O)OC[C@H]1C[C@@H](Nc2ncncc2C(=O)c2cc3c(s2)CN(C2CC2)CC32OCCc3ccc(F)cc32)C[C@@H]1O", "note": "(some centres unmarked)", "values": [{"measurement": "IC50", "value": "0.05 to 0.2", "unit": "µM"}]}, {"smiles": "NS(=O)(=O)OC[C@H]1C[C@@H](Nc2ncncc2C(=O)c2cc3c(s2)CCC[C@@]32NCCc3ccc(Cl)nc32)C[C@@H]1O", "values": [{"measurement": "IC50", "value": "> 0.2", "unit": "µM"}]}]}
